Reference: ChEMBL document CHEMBL3880431, “Heme oxygenase inhibitors, screening methods for heme oxygenase inhibitors and methods of use of heme oxygenase inhibitors for antimicrobial therapy” (2013)

Experiment: Lipophilicity, log P of the compound
Assay type: physicochemical
Conditions: octanol/water

[O-][n+]1onc2c1c1no[n+]([O-])c1c1no[n+]([O-])c21
logP: 0.64
